# In PubChem BioAssay AID1463 (National Center for Advancing Translational Sciences (NCATS), 2008):
# The entries are a selection whose mix differs from that of the whole data set. Results filed as inconclusive are left out. Calls of active or inactive are those of the source. The call rests on the fitted dose curve; in most records, active means well fitted curve in the direction sought with a large enough effect; inconclusive means small, poorly fitted or top-dose-only effect; inactive means flat fitted curve, though single readings scatter.
# Assay: Counterscreen qHTS for Inhibitors of Tau Fibril Formation, Fluorescence Polarization; further: nearly all actives have a fitted effect of over 55% in size
# Conditions: tau K18 P301L (four-repeat tau fragment) Alexa594 fluorescence, heparin fibrillization; series mostly up to 57.7 µM; activity change, negative = decrease: at the top concentration
# On the % scale 0 is the no-effect control and ±100 the full control effect; potency means the concentration at half of the fitted maximal effect; tags describe the fitted curve by direction and shape or compound fluorescence and quenching.
SMILES,"activity change, negative = decrease",Potency
CC(=O)NC(SC(=S)N(CC(C)C)CC(C)C)C(Cl)(Cl)Cl (stereo unspecified),inactive: -9.21%,
Cc1ccc(OP(=O)(Nc2ccccn2)Oc2ccc(C)cc2)cc1,inactive: 2.32%,
CN(C(=O)Cc1ccccc1)[C@H]1CC[C@@]2(CCCO2)C[C@@H]1N1CCCC1,inactive: -0.617%,
O=P(Nc1nc2ccccc2s1)(c1ccccc1)c1ccccc1,inactive: -10.9%,
C[C@H]1OP(=O)(Oc2ccccc2)[C@H](O)[C@H](O)[C@H]1N=[N+]=[N-] (stereo partly specified),inactive: 3.84%,
O=P(Nc1ccccn1)(c1ccc(Br)cc1)c1ccc(Br)cc1,inactive: -1.92%,
O=C(OC1CN2CCC1CC2)c1cccc(Cl)c1 (stereo unspecified),inactive: 7.56%,
Nc1ccc([As](=O)(O)c2ccc([N+](=O)[O-])cc2)cc1,inactive: -11.5%,
C(Cc1nn[nH]n1)Cc1nn[nH]n1,inactive: -5.2%,
O=[As](O)(c1ccccc1)c1ccc(O)cc1,inactive: 0.136%,
CC(=O)NC(SC(=S)N(C)C)C(Cl)(Cl)Cl (stereo unspecified),inactive: 0.795%,
O=[N+]([O-])c1ncn(CCn2cnc([N+](=O)[O-])n2)n1,inactive: -11.4%,
c1nnnn1CCn1cnnn1,inactive: -6.36%,
CC(C)C(=O)NC(Sc1ccccc1)C(Cl)(Cl)Cl (stereo unspecified),inactive: -6.99%,
O=P(Nc1nccs1)(c1ccccc1)c1ccccc1,inactive: 3.1%,
Cc1ccc(NP(=O)(Oc2ccccc2)Oc2ccccc2)nc1,inactive: 3.18%,
CCc1nc2c(n1)c1c(non1O)c1c2no[n+]1[O-],inactive: 22.5%,
O=[N+]([O-])c1cc([N+](=O)[O-])c(CCNc2ccccc2)c([N+](=O)[O-])c1,,active: 3.16 µM [quencher]
O=[N+]([O-])c1cccc2n[nH]nc12,inactive: -1.89%,
CC(=O)N1C2C3N(C(C)=O)C1C1N(C(C)=O)C(C(N1C(C)=O)N3C(C)=O)N2C(C)=O,inactive: 6.52%,
COc1ccc(C2=NCC(CBr)S2)cc1 (stereo unspecified),inactive: -4.92%,
CC1CCN(C(=O)Oc2c(Cl)cc(Cl)c3cccnc23)CC1,inactive: -14.9%,
CC(=O)C1=CCCC2CCC1N2 (stereo unspecified),,inactive
CC(C)=N/N=C(\N)N[N+](=O)[O-],inactive: 6.19%,
CN(C)C(=O)OCCc1n(C)cc[n+]1C,inactive: 3.83%,
CCN(/C(=N/P(=O)(N1CCOCC1)N1CCOCC1)N1CCOCC1)c1ccc(OC)cc1,inactive: -0.551%,

SMILES,"activity change, negative = decrease",Potency
Nc1ccc([As](=O)(O)c2ccc(N)cc2)cc1,inactive: -1.63%,
O=C(Nc1cc([As](=O)(O)O)ccc1O)c1ccccc1,inactive: -4.53%,
O=C(O)CNc1ccc([As](=O)(O)O)cc1,inactive: -4.26%,
O=[N+]([O-])c1cccc(NC2=NCC(CBr)S2)c1 (stereo unspecified),inactive: -5.69%,
O=[N+]([O-])c1ncn(CCn2ncnc2[N+](=O)[O-])n1,inactive: -2.8%,
CC(C)(C)C(=O)NC(Sc1ccncn1)C(Cl)(Cl)Cl (stereo unspecified),inactive: 3.99%,
CCOP(=O)(Nc1ccccc1)OCC,,inactive
Cc1cc(SC(NC(=O)c2ccc(F)cc2)C(Cl)(Cl)Cl)ncn1 (stereo unspecified),inactive: -3.16%,
Cc1ccc(NP(=O)(Oc2ccccc2F)Oc2ccccc2F)nc1,inactive: -1.6%,
O=P(Nc1nc2ccc(Cl)cc2s1)(c1ccccc1)c1ccccc1,inactive: -23.4%,
O=C(O)c1ccccc1[As](=O)(O)O,inactive: -21.8%,
CC(=O)Nc1ccc([As](=O)(O)O)cc1,inactive: 1.79%,
Nc1cccc2ccc([As](=O)(O)O)cc12,inactive: -15.4%,
CCN(N=Nc1nonc1N)c1nonc1N,inactive: -7.18%,
Clc1ccc(Cl)c(NC2=NCC(CBr)S2)c1 (stereo unspecified),inactive: -3.42%,
CN1CCCC(OC(=O)C(c2ccccc2)c2ccccc2)C1 (stereo unspecified),inactive: -1.11%,
COc1ccccc1OP(=O)(Nc1ccc(C)cn1)Oc1ccccc1OC,inactive: -3.47%,
Cc1ccc(OP(=O)(Nc2nccs2)Oc2ccc(C)cc2)cc1,inactive: -13%,
Cc1ccc(N/C(=N/P(=O)(N2CCOCC2)N2CCOCC2)N2CCOCC2)cc1,inactive: -1.19%,
NC(=O)c1cc([N+](=O)[O-])cc([N+](=O)[O-])c1N,inactive: -3.09%,
Oc1ccccc1CNc1ccccn1,inactive: 3.71%,
Cc1c2non([O-])c-2c(C)[n+](=O)[n+]1[O-],inactive: -22.8%,
O=C(NC(Sc1ccncn1)C(Cl)(Cl)Cl)c1ccccc1 (stereo unspecified),inactive: -0.994%,
CC(C)CC(=O)NC(Sc1ccc(Cl)cc1)C(Cl)(Cl)Cl (stereo unspecified),inactive: -10.1%,
Nc1cc(N)c2nonc2c1[N+](=O)[O-],inactive: 3.01%,
